Reference: US5110831A, “Vinylogous hydroxamic acids and derivatives thereof as 5-lipoxygenase inhibitors” (Du Pont Merck Pharmaceutical Company, priority 1990, dated 1992)

Biological target: T1, RBL-1 5-Lipoxygenase (Rattus norvegicus, UniProt P12527)
T1 construct: supernatant from homogenized RBL-1 cells; endogenous in cells; host or cells: RBL-1 cells (10,000×g supernatant of homogenate)
T1 sequence (P12527 1-673): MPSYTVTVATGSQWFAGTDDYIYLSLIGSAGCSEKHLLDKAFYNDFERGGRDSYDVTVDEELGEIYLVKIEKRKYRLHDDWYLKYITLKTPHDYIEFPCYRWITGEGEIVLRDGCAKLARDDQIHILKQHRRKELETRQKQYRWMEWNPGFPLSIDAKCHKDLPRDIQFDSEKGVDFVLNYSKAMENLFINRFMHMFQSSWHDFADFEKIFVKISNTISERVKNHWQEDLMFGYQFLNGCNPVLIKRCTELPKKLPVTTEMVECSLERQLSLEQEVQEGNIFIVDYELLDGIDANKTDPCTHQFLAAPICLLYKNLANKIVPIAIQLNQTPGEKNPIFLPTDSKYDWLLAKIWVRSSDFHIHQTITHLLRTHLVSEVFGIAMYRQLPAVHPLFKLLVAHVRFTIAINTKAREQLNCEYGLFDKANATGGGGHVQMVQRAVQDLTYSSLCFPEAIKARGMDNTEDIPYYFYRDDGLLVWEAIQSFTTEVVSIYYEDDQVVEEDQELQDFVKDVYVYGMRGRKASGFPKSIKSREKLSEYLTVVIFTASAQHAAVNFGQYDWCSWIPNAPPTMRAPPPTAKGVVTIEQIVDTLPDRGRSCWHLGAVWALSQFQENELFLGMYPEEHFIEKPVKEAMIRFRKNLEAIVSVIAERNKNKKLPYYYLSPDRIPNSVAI
Assay: RBL-1 5-lipoxygenase assay (10,000×g supernatant from homogenized RBL-1 cells, [14C] arachidonic acid)
Assay type: biochemical
Conditions: pH 7.0, 37° C., 5 min preincubation, 0.042 mM arachidonic acid; linear regression on three concentrations
Protocol: The potencies of the compounds as 5-lipoxygenase inhibitors were determined using a RBL-1 5-lipoxygenase assay. The procedure of Jakschik et al. was used (Jakschik, B. A.; Lee, L. H.; Shuffer, G.; Parker, C. W., Prostaglandins, 1978, 16, 733; Jakschik, B. A.; Sun, F. F.; Lee, L. H.; Steinhoff, M. M. Biochem. Biophys. Res. Commun., 1980, 95, 100; […]., Biochem. Biophys. Res. Commun., 1981, 102, 624). The enzyme was prepared as a 10,000×gsupernatant from homogenized RBL-1 cells. Because of variability in the enzyme content from culture to culture, an amount of supernatant was chosen to give a net production of 3300-3800 dpm of 5-HETE under the assay conditions (total cell protein 9-20 μg/assay). All reactions were run in duplicate. In a total volume of 100 μL, the appropriate amount of enzyme was incubated with test compound (prepared in 5% DMSO, 95% 0.2 M Tris, pH 8.5) in a phosphate buffer (45 mM sodium phosphate, 0.83 mM EDTA, 0.083% gelatin, 0.1 mM glutathione, 0.83 mM calcium chloride, 0.012 mM indomethacin) at pH 7.0 and 37° C. for 5 min. The reaction was initiated by the addition of 20 μL of a solution of arachidonic acid in phosphate buffer. […] Activity was measured as the total radioactivity in the 5-LO products, and inhibition was calculated at (1-D/C)×100%, where D is the activity in the presence of the test compound and C is the control activity.

- IC50: 60 nM
Structure (SMILES): CN(O)C=CC(=O)c1ccc(-c2ccccc2)cc1 [Example 1r]
